Test results published in paper PMC6373292 (Pharmaceutical Research, 2019).

Tested on: HDMEC monolayers
Experiment: Trans-endothelial transport assay across HDMEC monolayers
Format: in vitro ADME, human
Settings: LOCI read-out, n=3–4; for Amount accumulated0-15min /amount accumulated0-60min (%): HDMEC monolayers, receiver chamber, HBSS pH 7.4, 37°C, mean±SD

Substance: human insulin
- Apparent permeability (Papp) (HDMEC monolayers on fibronectin-coated Transwell polyester filters (0.4 μm), donor to receiver, samples of Table II diluted 1:1 in HBSS, 10 mM HEPES, 0.1% ovalbumin, 0.005% Tween 20, pH 7.4, 60 min, 37°C, 5% CO2, 30 rpm, mean): 3.2 ×10⁻⁶ cm/s
- Amount accumulated0-15min /amount accumulated0-60min (%): 18.1±0.9%
- Amount accumulated0-15min /amount accumulated0-60min (%) (listed as human insulin): 18.1%
